Measured values as given in PMC2637359 (Journal of cardiovascular pharmacology, 2008).

System: sEH
Details: AEPU-treated ApoE -/- mice, percent of control, p<0.05

CCOCCOCCOCCCCCNC(=O)NC12CC3CC(CC(C3)C1)C2 [AEPU, 1-adamantan-3-(5-(2-(2-ethylethoxy)ethoxy)pentyl)urea]
Plasma 14,15-EET and 9,10-EpOME levels versus control: significantly higher
